Data: patent publication US20110195433A1 (priority 2007, published 2011)
Entries after “also recorded” stand apart in the source; their conditions may differ.

Chains of the proteins cited; added tags and fusions are not shown. Lines headed by an entry give the natural chain unless they say otherwise; changes in a name come on top.
UniProt P35372, whole entry: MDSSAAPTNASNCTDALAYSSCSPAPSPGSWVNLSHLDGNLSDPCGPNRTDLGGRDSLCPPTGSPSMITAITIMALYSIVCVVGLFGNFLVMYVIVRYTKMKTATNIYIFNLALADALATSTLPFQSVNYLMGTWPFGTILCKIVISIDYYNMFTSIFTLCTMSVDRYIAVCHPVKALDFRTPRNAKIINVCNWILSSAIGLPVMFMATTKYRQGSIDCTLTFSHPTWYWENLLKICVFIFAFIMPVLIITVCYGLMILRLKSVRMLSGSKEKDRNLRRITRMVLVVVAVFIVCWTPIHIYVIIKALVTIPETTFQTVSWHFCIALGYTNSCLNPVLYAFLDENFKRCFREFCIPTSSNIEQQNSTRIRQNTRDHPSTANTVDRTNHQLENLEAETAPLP
UniProt P41145: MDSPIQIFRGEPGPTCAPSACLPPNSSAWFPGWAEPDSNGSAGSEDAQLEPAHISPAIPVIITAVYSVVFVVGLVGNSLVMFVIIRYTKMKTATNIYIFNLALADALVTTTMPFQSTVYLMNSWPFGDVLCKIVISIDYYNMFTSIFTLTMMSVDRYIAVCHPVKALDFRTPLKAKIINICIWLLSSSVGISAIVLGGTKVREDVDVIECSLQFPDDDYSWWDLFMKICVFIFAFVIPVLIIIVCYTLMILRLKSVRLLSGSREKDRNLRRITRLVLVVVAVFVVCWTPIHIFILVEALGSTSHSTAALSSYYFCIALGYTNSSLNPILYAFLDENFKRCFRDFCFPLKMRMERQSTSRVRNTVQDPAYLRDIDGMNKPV

Columns and labels:
human MOR [1] = biological target: T1, human MOR (Homo sapiens, UniProt P35372)
human KOR [2] = biological target: T2, human KOR (Homo sapiens, UniProt P41145)
human MOR [3] = biological target: T1, human MOR; assay type: binding; set-up: expressed in transfected cells; membranes
human KOR [4] = biological target: T2, human KOR; assay type: binding; set-up: expressed in transfected cells; membranes
human MOR [5] = biological target: T1, human MOR; assay type: biochemical; set-up: expressed in transfected cells; membranes
human KOR [6] = biological target: T2, human KOR; assay type: biochemical; set-up: expressed in transfected cells; membranes

Oc1ccc2c3c1O[C@H]1[C@H](O)CC[C@@]4(O)[C@@H](C2)N(CC2CC2)CC[C@]314 [6β-naltrexol]
antagonistic property against agonist-stimulated [35S]GTPγS binding (human MOR [1]): full antagonists
antagonistic property against agonist-stimulated [35S]GTPγS binding (human KOR [2]): full antagonists
binding affinity, fold higher (more potent) than naloxone (human MOR [3]): 2- to 5 fold
binding affinity, fold less potent than naltrexone (human MOR [3]): 2 fold
binding affinity, fold higher than naloxone (human KOR [4]): 2- to 5 fold
binding affinity, fold less potent than naltrexone (human KOR [4]): 2 fold
effect on basal [35S]GTPγS binding (human MOR [5]): no inverse agonist effects; also recorded: did not decrease
inhibition of the inverse agonist effect of naloxone (human MOR [5]): inhibited
pharmacological property at MOR (human MOR [5]): neutral antagonists regardless of agonist pretreatment
effect on basal [35S]GTPγS binding (human KOR [6]): no inverse agonist effects; also recorded: decreased; also recorded: but not morphine-pretreated
inhibition of the inverse agonist effect of naloxone (human KOR [6]): inhibited
pharmacological property at KOR (human KOR [6]): turned into inverse agonist
